{
  "source": "paper PMC9223267",
  "about": "“Serine hydroxymethyltransferase as a potential target of antibacterial agents acting synergistically with one-carbon metabolism-related inhibitors” (Communications Biology, 2022)",
  "key": {"E. faecium [1]": {"test_system": "E. faecium", "assay": "Bacterial viability assay (Microbial Viability Assay Kit-WST, OD450)", "format": "cell-based, Enterococcus faecium", "settings": "single values"}, "Caski cells": {"test_system": "Caski cells", "assay": "Cell cytotoxicity assay (Cell Counting Kit-8, 5 days)", "format": "cell-based, human", "settings": "with each cell line (Caski, Hep-2 and Calu-3)"}, "E. faecium [2]": {"test_system": "E. faecium", "assay": "Relative quantitation of mRNA of folate-binding proteins (qPCR)", "format": "cell-based, Enterococcus faecium", "settings": "2 μM, single values"}, "efmSHMT": {"test_system": "efmSHMT", "format": "binding, Enterococcus faecium", "settings": "DSF; final drug concentration 50 μM"}, "E. faecium [3]": {"test_system": "E. faecium", "assay": "Antibacterial assay with an excess concentration of biomolecules (Ser, Gly, inosine, dT, FA)", "settings": "E. faecium JCM5804"}},
  "note": "Where “and” joins values, the source holds several entries; their conditions need not be identical. Identical values can stand only once.",
  "data": [
    {"smiles": "Cc1n[nH]c2c1[C@](c1cc(CO)cc(-c3ccccc3)c1)(C(C)C)C(C#N)=C(N)O2", "note": "[(+)-SHIN-1]", "values": [
      {"measurement": "Relative bacterial viability", "setting": "E. faecium [1]; 0.002 nM, 0 hours", "value": "0.02429 and 0.01932 and 0.02699"},
      {"measurement": "Relative bacterial viability", "setting": "E. faecium [1]; 0.002 nM, 2 hours", "value": "0.03004 and 0.03309 and 0.03812"},
      {"measurement": "Relative bacterial viability", "setting": "E. faecium [1]; 0.002 nM, 6 hours", "value": "0.5169 and 0.6074 and 0.5088"},
      {"measurement": "Relative bacterial viability", "setting": "E. faecium [1]; 0.002 nM, 8 hours", "value": "0.7263 and 0.5166 and 0.6744"},
      {"measurement": "Relative bacterial viability", "setting": "E. faecium [1]; 0.002 nM, 10 hours", "value": "0.7297 and 0.6296 and 0.8675"},
      {"measurement": "Relative bacterial viability", "setting": "E. faecium [1]; 0.002 nM, 12 hours", "value": "0.7481 and 0.8347 and 0.8542"},
      {"measurement": "Relative bacterial viability", "setting": "E. faecium [1]; 0.002 nM, 14 hours", "value": "0.7092 and 0.7528 and 0.8693"},
      {"measurement": "Relative bacterial viability", "setting": "E. faecium [1]; 0.02 nM, 0 hours", "value": "0.02483 and 0.02435 and 0.02492"},
      {"measurement": "Relative bacterial viability", "setting": "E. faecium [1]; 0.02 nM, 2 hours", "value": "0.03006 and 0.03128 and 0.03314"},
      {"measurement": "Relative bacterial viability", "setting": "E. faecium [1]; 0.02 nM, 6 hours", "value": "0.4513 and 0.5391 and 0.5152"},
      {"measurement": "Relative bacterial viability", "setting": "E. faecium [1]; 0.02 nM, 8 hours", "value": "0.5639 and 0.6166 and 0.6675"},
      {"measurement": "Relative bacterial viability", "setting": "E. faecium [1]; 0.02 nM, 10 hours", "value": "0.6198 and 0.6896 and 0.6835"},
      {"measurement": "Relative bacterial viability", "setting": "E. faecium [1]; 0.02 nM, 12 hours", "value": "0.6343 and 0.6046 and 0.7527"},
      {"measurement": "Relative bacterial viability", "setting": "E. faecium [1]; 0.02 nM, 14 hours", "value": "0.5602 and 0.701 and 0.662"},
      {"measurement": "Relative bacterial viability", "setting": "E. faecium [1]; 0.2 nM, 0 hours", "value": "0.0233 and 0.02329 and 0.02623"},
      {"measurement": "Relative bacterial viability", "setting": "E. faecium [1]; 0.2 nM, 2 hours", "value": "0.02436 and 0.03032 and 0.03225"},
      {"measurement": "Relative bacterial viability", "setting": "E. faecium [1]; 0.2 nM, 4 hours", "value": "0.08823 and 0.1393 and 0.1446"},
      {"measurement": "Relative bacterial viability", "setting": "E. faecium [1]; 0.2 nM, 6 hours", "value": "0.301 and 0.4695 and 0.3439"},
      {"measurement": "Relative bacterial viability", "setting": "E. faecium [1]; 0.2 nM, 8 hours", "value": "0.3818 and 0.4551 and 0.5048"},
      {"measurement": "Relative bacterial viability", "setting": "E. faecium [1]; 0.2 nM, 10 hours", "value": "0.4983 and 0.4878 and 0.5532"},
      {"measurement": "Relative bacterial viability", "setting": "E. faecium [1]; 0.2 nM, 12 hours", "value": "0.469 and 0.5601 and 0.3666"},
      {"measurement": "Relative bacterial viability", "setting": "E. faecium [1]; 0.2 nM, 14 hours", "value": "0.4443 and 0.5334 and 0.5469"},
      {"measurement": "Relative bacterial viability", "setting": "E. faecium [1]; 2 nM, 0 hours", "value": "0.02007 and 0.02438 and 0.02356"},
      {"measurement": "Relative bacterial viability", "setting": "E. faecium [1]; 2 nM, 2 hours", "value": "0.03292 and 0.02617 and 0.03084"},
      {"measurement": "Relative bacterial viability", "setting": "E. faecium [1]; 2 nM, 4 hours", "value": "0.1475 and 0.08523 and 0.1641"},
      {"measurement": "Relative bacterial viability", "setting": "E. faecium [1]; 2 nM, 6 hours", "value": "0.2471 and 0.303 and 0.3379"},
      {"measurement": "Relative bacterial viability", "setting": "E. faecium [1]; 2 nM, 8 hours", "value": "0.4104 and 0.4271 and 0.369"},
      {"measurement": "Relative bacterial viability", "setting": "E. faecium [1]; 2 nM, 10 hours", "value": "0.3801 and 0.4059 and 0.397"},
      {"measurement": "Relative bacterial viability", "setting": "E. faecium [1]; 2 nM, 12 hours", "value": "0.405 and 0.335 and 0.3218"},
      {"measurement": "Relative bacterial viability", "setting": "E. faecium [1]; 2 nM, 14 hours", "value": "0.346 and 0.3933 and 0.3283"},
      {"measurement": "Relative bacterial viability", "setting": "E. faecium [1]; 20 nM, 0 hours", "value": "0.02589 and 0.02697 and 0.02933"},
      {"measurement": "Relative bacterial viability", "setting": "E. faecium [1]; 20 nM, 2 hours", "value": "0.02853 and 0.02842 and 0.03437"},
      {"measurement": "Relative bacterial viability", "setting": "E. faecium [1]; 20 nM, 4 hours", "value": "0.0851 and 0.1525 and 0.1401"},
      {"measurement": "Relative bacterial viability", "setting": "E. faecium [1]; 20 nM, 6 hours", "value": "0.2225 and 0.2825 and 0.2517"},
      {"measurement": "Relative bacterial viability", "setting": "E. faecium [1]; 20 nM, 8 hours", "value": "0.3287 and 0.2343 and 0.2795"},
      {"measurement": "Relative bacterial viability", "setting": "E. faecium [1]; 20 nM, 10 hours", "value": "0.2735 and 0.311 and 0.2601"},
      {"measurement": "Relative bacterial viability", "setting": "E. faecium [1]; 20 nM, 12 hours", "value": "0.285 and 0.2913 and 0.2651"},
      {"measurement": "Relative bacterial viability", "setting": "E. faecium [1]; 20 nM, 14 hours", "value": "0.2651 and 0.258 and 0.2518"},
      {"measurement": "selectivity index (S.I.): CC50 against each cell line / EC50 against E. faecium", "setting": "Caski cells", "value": "exceeded 45,000"},
      {"measurement": "Relative mRNA level of Fhs with and without (+)-SHIN-1", "setting": "E. faecium [2]; 4 hours", "value": "0.5212 and 0.5176 and 0.4263 and 0.712"},
      {"measurement": "Relative mRNA level of GcvH with and without (+)-SHIN-1", "setting": "E. faecium [2]; 4 hours", "value": "1.266 and 1.079 and 1.072 and 1.248"},
      {"measurement": "Relative mRNA level of MetE with and without (+)-SHIN-1", "setting": "E. faecium [2]; 4 hours", "value": "0.7022 and 0.5471 and 0.5 and 0.8011"},
      {"measurement": "Relative mRNA level of SHMT with and without (+)-SHIN-1", "setting": "E. faecium [2]; 4 hours", "value": "1.434 and 1.214 and 1.395 and 0.9931 and 0.9526 and 1.682"},
      {"measurement": "Relative mRNA level of FolD with and without (+)-SHIN-1", "setting": "E. faecium [2]; 10 hours", "value": "1.79 and 2.056 and 1.338 and 1.879"},
      {"measurement": "Relative mRNA level of GcvH with and without (+)-SHIN-1", "setting": "E. faecium [2]; 10 hours", "value": "2.479 and 2.266 and 1.866 and 1.905"},
      {"measurement": "Relative mRNA level of MetE with and without (+)-SHIN-1", "setting": "E. faecium [2]; 10 hours", "value": "3.706 and 2.621 and 1.959 and 1.866"}
    ]},
    {"smiles": "CN[C@H]1CC[C@@H](c2ccc(Cl)c(Cl)c2)c2ccccc21", "note": "[SER, sertraline]", "values": [
      {"measurement": "Relative bacterial viability", "setting": "E. faecium [1]; 4 μM, 0 hours", "value": "0.01643 and 0.01709 and 0.02505 and 0.02136 and 0.02139 and 0.01651 and 0.02544 and 0.02186"},
      {"measurement": "Relative bacterial viability", "setting": "E. faecium [1]; 4 μM, 2 hours", "value": "0.03008 and 0.03236 and 0.03793 and 0.03714 and 0.02993 and 0.02838 and 0.0317 and 0.03137"},
      {"measurement": "Relative bacterial viability", "setting": "E. faecium [1]; 4 μM, 6 hours", "value": "0.7408 and 0.8154 and 0.8695 and 0.8307 and 0.4983 and 0.4746 and 0.4926 and 0.517"},
      {"measurement": "Relative bacterial viability", "setting": "E. faecium [1]; 4 μM, 8 hours", "value": "0.7398 and 0.6817 and 0.6102 and 0.6308 and 0.6696 and 0.7376 and 0.6939 and 0.6024"},
      {"measurement": "Relative bacterial viability", "setting": "E. faecium [1]; 4 μM, 10 hours", "value": "0.7553 and 0.6503 and 0.6659 and 0.7068"},
      {"measurement": "Relative bacterial viability", "setting": "E. faecium [1]; 4 μM, 12 hours", "value": "0.9534 and 0.9538 and 0.9571 and 0.87 and 0.8973 and 0.9262 and 0.9135 and 0.935"},
      {"measurement": "Relative bacterial viability", "setting": "E. faecium [1]; 4 μM, 14 hours", "value": "0.9939 and 0.9995 and 0.9938 and 0.9905 and 0.9695 and 0.9711 and 0.9915 and 0.9919"},
      {"measurement": "Relative bacterial viability", "setting": "E. faecium [1]; 40 μM, 0 hours", "value": "0.06773 and 0.07011 and 0.04926 and 0.05181 and 0.06275 and 0.056 and 0.05534 and 0.07801"},
      {"measurement": "Relative bacterial viability", "setting": "E. faecium [1]; 40 μM, 2 hours", "value": "0.08142 and 0.09734 and 0.07955 and 0.07164 and 0.07725 and 0.07311 and 0.06901 and 0.09679"},
      {"measurement": "Relative bacterial viability", "setting": "E. faecium [1]; 40 μM, 4 hours", "value": "0.08959 and 0.09369 and 0.07599 and 0.08366 and 0.07938 and 0.08195 and 0.08682 and 0.1057"},
      {"measurement": "Relative bacterial viability", "setting": "E. faecium [1]; 40 μM, 6 hours", "value": "0.08914 and 0.1155 and 0.0796 and 0.08927 and 0.09836 and 0.09692 and 0.09332 and 0.1195"},
      {"measurement": "Relative bacterial viability", "setting": "E. faecium [1]; 40 μM, 8 hours", "value": "0.08126 and 0.09978 and 0.08555 and 0.07545 and 0.0961 and 0.08176 and 0.08217 and 0.1035"},
      {"measurement": "Relative bacterial viability", "setting": "E. faecium [1]; 40 μM, 10 hours", "value": "0.09012 and 0.1052 and 0.08865 and 0.07965 and 0.09035 and 0.08629 and 0.09816 and 0.1031"},
      {"measurement": "Relative bacterial viability", "setting": "E. faecium [1]; 40 μM, 12 hours", "value": "0.09668 and 0.09937 and 0.08521 and 0.08042 and 0.08964 and 0.08051 and 0.0853 and 0.1021"},
      {"measurement": "Relative bacterial viability", "setting": "E. faecium [1]; 40 μM, 14 hours", "value": "0.09884 and 0.08998 and 0.08117 and 0.08774 and 0.08986 and 0.0806 and 0.08989 and 0.09534"},
      {"measurement": "ΔTm (thermal stability of efmSHMT)", "setting": "efmSHMT", "value": "did not stabilise efmSHMT significantly"}
    ]},
    {"smiles": "Cc1[nH]nc2c1C(c1cc(CO)cc(-c3ccccc3)c1)(C(C)C)C(C#N)=C(N)O2", "note": "(stereo not drawn) [SHIN-1]", "values": [
      {"measurement": "F.I. (fold increase: EC50 with supplement / EC50 without supplement)", "setting": "E. faecium [3]; 1 mM Inosine", "value": 10},
      {"measurement": "F.I. (fold increase: EC50 with supplement / EC50 without supplement)", "setting": "E. faecium [3]; 1 mM deoxythymidine", "value": ">3 × 10^3"},
      {"measurement": "F.I. (fold increase: EC50 with supplement / EC50 without supplement)", "setting": "E. faecium [3]; 10 mM Glycine", "value": 2},
      {"measurement": "F.I. (fold increase: EC50 with supplement / EC50 without supplement)", "setting": "E. faecium [3]; 100 mM Serine", "value": 5}
    ]}
  ]
}
